Measurements published in US20140356285A1, “COMPOSITIONS AND METHODS RELATED TO TISSUE TARGETING” (THE BOARD OF REGENTS OF THE UNIVERSITY OF TEXAS SYSTEM, priority 2011, published 2014).

Molecular target: T1, PR-3 (Homo sapiens, UniProt P24158)
T1 construct: purchased Sigma
T1 sequence (P24158 28-248 limits assumed): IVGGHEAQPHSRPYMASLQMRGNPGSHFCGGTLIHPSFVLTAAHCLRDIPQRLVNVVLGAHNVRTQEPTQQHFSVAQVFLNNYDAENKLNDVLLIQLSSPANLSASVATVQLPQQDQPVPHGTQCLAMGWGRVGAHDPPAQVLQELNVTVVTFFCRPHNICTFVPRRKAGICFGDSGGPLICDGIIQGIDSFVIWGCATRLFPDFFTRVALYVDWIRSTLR
Assay: ELISA of RAGE binding to immobilized PR-3
Details: extracellular portion of human RAGE, endogenous PR-3 (FIG. 4C, 4D)
Protocol: Protein Binding Assays. Titration of anti-peptide antibodies was performed on Maxisorb Immunoplates (Nunc) coated with 1 μg/mL of peptides or proteins. Incubation with primary antibodies was followed by signal detection with goat anti-rabbit HRP-conjugated IgG (Sigma-Aldrich; St. Louis, Mo.) and 3, 3′,5,5′-tetramethylbenzidine (TMB) (Calbiochem). To evaluate protein-protein interactions, the inventors performed ELISA on 96-well plates coated with 1 μg/mL of recombinant candidate receptors, as indicated. Blocking of exposed non-specific binding sites was performed with PBS containing either 2% gelatin or 1% BSA, as indicated. Ligand candidates were added to the wells at different concentrations, as indicated. Specific binding was detected by incubation with appropriate primary and secondary antibodies. For capture experiments, immobilized His6-ANXA2 and ANXAS were incubated with recombinant GST-prohibitin. Protein interaction, assessed by immunoblotting with anti-GST antibody, was detected with anti-rabbit or anti-goat secondary alkaline phosphatase-conjugated polyclonal antibodies.

## RAGE: extracellular portion of human RAGE, recombinant Fc-tagged protein
  binding of RAGE to immobilized PR-3: bound to immobilized PR-3; also recorded: concentration-dependent

“Also recorded” adds a separate entry of the source.
